The term Kd denotes the free concentration of one partner at which half of the binding sites on the other are occupied at equilibrium, for simple one-to-one binding.

Protein sequences, listed by entry. Tags and fused reporters are not part of them. Residues count along the entry.
UniProt P48061, 22-89 limits assumed: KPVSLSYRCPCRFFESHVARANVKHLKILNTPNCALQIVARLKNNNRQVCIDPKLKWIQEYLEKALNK

The target in assay [1] is CXCL12WT (wild type CXCL12) (Homo sapiens (Human)) (UniProt P48061). Description: CXCL12WT dimerization, intrinsic tryptophan fluorescence polarization, 25 mM MES pH 6.8, 298 K; alone, no sulfotyrosine or sTyr21 sulfopeptide. A general note: Polarisation of emitted light reports the rotation of a fluorescent probe.
Assay [2] shares this target. The experiment in a line: dimerization in 100 mM NaPO4 pH 7.4; 100 mM NaPO4 (pH 7.4).
Assay [3] shares this target. Description: CXCL12WT dimerization, intrinsic tryptophan fluorescence polarization, in the presence of 3 mM sTyr21 sulfopeptide.
Assay [4] has the same target. The experiment in a line: dimerization without peptide, from fluorescence polarization at 298 K.
Assay [5] has the same target. Description: CXCL12WT dimerization, intrinsic tryptophan fluorescence polarization, in the presence of 50 mM sulfotyrosine.
The target is the same in assay [6]. Description: dimerization after binding of the sTyr21 sulfopeptide, from fluorescence polarization at 298 K.

With “CXCL12WT (wild type CXCL12) (from UniProt P48061 22-89) (ligand; other documents disagree on this pair)”, the Kd in assay [1] worked out at 15.1 mM; in assay [2], 0.14 mM; in assay [3], 2.6 mM; in assay [5] it was 8.9 mM. The ΔGdimer in assay [4] was -2.5 kcal/mol; in assay [6] it was -3.5 kcal/mol.

The record behind these values is patent US9908923.
